Data as given in US9109045B2, “Mass producing growth factor using adipose derived adult stem cells” (PROSTEMICS CO., LTD., priority 2006, dated 2015).

System: adipose-derived stem cells
Details: at the optimal concentrations

For vitamin D, the “cytotoxicity by MTT assay” value was “no cytotoxicity occurred”.
